Target: EBV peptide on HLA-A*02:01 (human)
Assay: data from [105]; method not given; soluble, other

Question: Which Kd does the source give for AS01 here?
Answer: The Kd was 8.1 µM.

Reference: article PMC7793522
